This is an account of results in patent US11292791B2 (priority 2017, dated 2022).

The test concerns the target BRD4 (Homo sapiens (Human), UniProt O60885). The conditions noted are these: read-out: BRD4 IC50 (μM gmean).

In general, IC50 refers to the concentration needed to halve the response being measured. Take `COC(=O)N1c2ccc3c(nc(C(O)c4cccc(OC)c4)n3C3CCCC(C(=O)O)C3)c2CC[C@@H]1C` (some centres unmarked) [Example 538]: the IC50 was 1 to 1000 µM. Next, `COC(=O)N1c2ccc3c(nc(CC4CCCCO4)n3C3CCCC(C(=O)O)C3)c2CC[C@@H]1C` (some centres unmarked) [Example 559]: 1 to 1000 µM; `COC(=O)N1c2ccc3c(nc(C(NC(C)=O)c4ccccc4)n3C3CCCC(C(=O)O)C3)c2CC[C@@H]1C` (some centres unmarked) [Example 525]: 0.1 to 1 µM; `COC(=O)N1c2ccc3c(nc(CCC4CCCCO4)n3C3CCCC(C(=O)O)C3)c2CC[C@@H]1C` (some centres unmarked) [Example 864]: 1 to 1000 µM. As for `COC(=O)N1c2ccc3c(nc(C(C)c4ccc(OC)c(F)c4)n3C3CCC(C(=O)O)CC3)c2CC[C@@H]1C` (some centres unmarked) [Example 477], the figure is 1 to 1000 µM.

In the case of `COC(=O)N1c2ccc3c(nc(CCC4CCCO4)n3C3CCCC(C(=O)O)C3)c2CC[C@@H]1C` (some centres unmarked) [Example 886], the IC50 lay within 0.1 to 1 µM. As for `COC(=O)N1c2ccc3c(nc(C(O)c4cc(F)cc(OC)c4)n3C3CCCC(C(=O)O)C3)c2CC[C@@H]1C` (some centres unmarked) [Example 418], the figure is 0.1 to 1 µM; as for `COC(=O)N1c2ccc3c(nc(C(O)c4cc(F)ccc4C(F)F)n3C3CCCC(C(=O)O)C3)c2CC[C@@H]1C` (some centres unmarked) [Example 564], 1 to 1000 µM; as for `COC(=O)N1c2ccc3c(nc(C(O)c4ccc5[nH]ncc5c4)n3C3CCCC(C(=O)O)C3)c2CC[C@@H]1C` (some centres unmarked) [Example 612], 0.1 to 1 µM. Take `COC(=O)N1c2ccc3c(nc(CC(O)c4ccccc4)n3C3CCCC(C(=O)O)C3)c2CC[C@@H]1C` (some centres unmarked) [Example 647]: the IC50 was in the range of 0.1 to 1 µM. For the molecule `COC(=O)N1c2ccc3c(nc(C(O)c4ccc(OC)cc4)n3C3CCCC(C(=O)O)C3)c2CC[C@@H]1C` (some centres unmarked) [Example 682], the concentration for half-maximal inhibition (IC50) was 1 to 1000 µM.

For the molecule `COC(=O)N1c2ccc3c(nc(C(C)Cc4ccccc4)n3C3CCCNCC3)c2CC[C@@H]1C` (some centres unmarked) [Example 942], the IC50 lay in the range of 1 to 1000 µM. As for `COC(=O)N1c2ccc3c(nc(C(C)CN4CCCCC4=O)n3C3CCCC(C(=O)O)C3)c2CC[C@@H]1C` (some centres unmarked) [Example 808], the figure is 0.1 to 1 µM; as for `COC(=O)N1c2ccc3c(nc(C(C)Cn4cc(Cl)cn4)n3C3CCNC3)c2CC[C@@H]1C` (some centres unmarked) [Example 811], 1 to 1000 µM.

With `COC(=O)N1c2ccc3c(nc(Cn4ccccc4=O)n3[C@H]3CCC[C@@H](O)C3)c2CC[C@@H]1C` [Example 67], the half-inhibitory concentration (IC50) was in the range of 1 to 1000 µM. As to `COC(=O)N1c2ccc3c(nc(C(C)CN4CCCCC4=O)n3C3CCCC(C(=O)O)C3)c2CC[C@@H]1C` (some centres unmarked) [Example 898], the IC50 lay within 1 to 1000 µM. Consider `COC(=O)N1c2ccc3c(nc(C(O)c4ccc(C)c(F)c4)n3C3CCCC(C(=O)O)C3)c2CC[C@@H]1C` (some centres unmarked) [Example 415], for which the concentration for half-maximal inhibition (IC50) fell in the range of 0.1 to 1 µM. As for `COC(=O)N1c2ccc3c(nc(CC(O)c4ccccc4)n3C3CCC(C(=O)O)CC3)c2CC[C@@H]1C` (some centres unmarked) [Example 800], the figure is 0.1 to 1 µM; as for `COC(=O)N1c2ccc3c(nc(CCc4ccccc4)n3[C@H]3CC[C@@H](C(N)=O)CC3)c2CC[C@@H]1C` [Example 77], 1 to 1000 µM; as for `COC(=O)N1c2ccc3c(nc(C(O)c4cc(Cl)cc(OC)c4)n3C3CCCC(C(=O)O)C3)c2CC[C@@H]1C` (some centres unmarked) [Example 433], 0.1 to 1 µM. Take `COC(=O)N1c2ccc3c(nc(C(OC)c4ccccc4)n3C3CCCC(C(=O)O)C3)c2CC[C@@H]1C` (some centres unmarked) [Example 513]: the concentration for half-maximal inhibition (IC50) is 1 to 1000 µM.

`COC(=O)N1c2ccc3c(nc(C(O)c4ccc(OC)c(F)c4)n3C3CCCC(C(=O)O)C3)c2CC[C@@H]1C` (some centres unmarked) [Example 438]: the IC50 was 0.1 to 1 µM. With `COC(=O)N1c2ccc3c(nc([C@H](C)Cn4cc(Cl)cn4)n3C3CCC4(CC3)CNC4)c2CC[C@@H]1C` [Example 936], the IC50 lay within 1 to 1000 µM. Regarding `COC(=O)N1c2ccc3c(nc(C(C)C(O)c4ccccc4)n3C3CCCC(C(=O)O)C3)c2CC[C@@H]1C` (some centres unmarked) [Example 545], the IC50 lay in the range of 0.1 to 1 µM. Next, `COC(=O)N1c2ccc3c(nc(C(O)Cc4ccccc4)n3C3CCC(C(=O)O)CC3)c2CC[C@@H]1C` (some centres unmarked) [Example 817]: 0.1 to 1 µM; `COC(=O)N1c2ccc3c(nc(C(C)Cn4cc(Cl)cn4)n3C3CCCNCC3)c2CC[C@@H]1C` (some centres unmarked) [Example 842]: 1 to 1000 µM.
